The nature of data set [1]: Cmax in human A-431 cells xenografted athymic NMRI-nu/nu female mouse at 20 mg/kg, po administered daily for 25 days by LC-MS-MS method. The class given is ADME, organism-based. The following applies: in vivo, time 25 day. On the technique in general: A xenograft is tissue or cells of one species grown in another, often human tumour cells in immunodeficient mice.
Data set [2] is described as follows: Cmax in human SK-OV-3 cells xenografted athymic NMRI-nu/nu female mouse at 20 mg/kg, po administered daily for 25 days by LC-MS-MS method. The class given is ADME, organism-based. The following applies: in vivo, time 25 day.

Take `CN(C)C/C=C/C(=O)Nc1cc2c(Nc3ccc(F)c(Cl)c3)ncnc2cc1O[C@H]1CCOC1` [AFATINIB]: the Cmax (commonly the maximum level reached in the sampled fluid or tissue) in data set [1] came out at 285 nM; in data set [2] it was 236 nM.

The values above are taken from ChEMBL document CHEMBL5647683 (Oncogene, 2008).
